# Compound activity (PubChem BioAssay)
# Hits are enriched below; roughly 2.2% of the tested compounds scored in any of these assays.
# A549 viability: counter-screen for Nrf2 inhibitors: cytotoxicity in A549 cells | A549 ARE-Fluc cells, CellTiter-Fluor viability, 18-24 h | Potency, µM (highest dose often 46 µM), inactives show at the top dose activity change, negative = cytotoxicity, most hits filed as inhibitors | actives 0.16% (n = 390,000); further: potency means the concentration at half of the fitted maximal effect; on the % scale 0 is the no-effect control and ±100 the full control effect
#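 A549 ARE-Fluc cells in 5% FBS OPTI-MEM, 5000 cells/well, rested 2 h then exposed to compounds in concentration-response for 18-24 h at 37 °C. Viability by CellTiter-Fluor fluorescence (Ex 405/Em 525) after 30 min; luciferase luminescence (BugLite, 15 min, RT) read afterwards.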
# miR-21 reporter: miR-21 reporter, rising signal | AID 2288 | HeLa miR-21 FLuc reporter, luciferase, 48 h | 340,000 tested, under 10 active | Potency, µM (doses to about 38.3 µM), for inactives: at the top dose reporter change, positive = more light; active = well fitted rising curve with a large enough effect; inconclusive = small, poorly fitted or top-dose-only effect; inactive = no such curve, though single readings can be large or run the other way;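 note: % of control where 0% means no effect; miR-21 action dims this reporter so a rising signal means less miR-21 action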
#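 Luminescence from a firefly luciferase reporter carrying a miR-21 binding site downstream, stably expressed under a CMV promoter in HeLa cells that make miR-21 endogenously, reports miRNA modulation after 48 h compound exposure up to approximately 40uM final.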
# Nrf2 inh: inhibitors of Nrf2 signaling. actives 2.1% (n = 360,000). Potency, µM (titrated, usually from 46 µM), without a hit: at the top dose activity change, negative = inhibition, most hits filed as inhibitors. A549 ARE-Fluc reporter, luciferase luminescence, 18-24 h. AID 504444; further: potency means the concentration at half of the fitted maximal effect; on the % scale 0 is the no-effect control and ±100 the full control effect; nearly all actives have a fitted effect of over 60% in size
#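 A549 ARE_Fluc cells (5000/well, 5% FBS OPTI-MEM) pre-incubated 2 h, then treated with compounds 18-24 h at 37C/5% CO2 in concentration-response. CellTiter-Fluor viability read first; BugLite luciferase luminescence after 15 min at room temperature gives Nrf2 activity.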
# B2AR arrestin: agonists driving beta-arrestin recruitment to human beta2-adrenergic receptor; P07550; beta-arrestin recruitment to beta2AR, cell-based reporter; Potency, µM (titrated, usually from 46.1 µM), inactives show at the highest dose activation, usual class: activators; actives 0.02% (n = 330,000);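 further: potency means the concentration at half of the fitted maximal effect; 0% = DMSO controls and full agonism = EC100 isoproterenol or metaproterenol; nearly all actives have a fitted effect of over 65% in size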
# Nrf2 activator: activates Nrf2 signaling; AREc32 ARE-luciferase reporter (MCF7-derived line), luminescence, 24 h; Potency, µM (series often up to 46.1 µM), without a hit: top-dose activation, usual class: activators; actives 0.31% (n = 410,000); further: potency means the concentration at half of the fitted maximal effect; % of control where 0% means no effect; nearly all actives have a fitted effect of over 65% in size
#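 AREc32 cells carrying an ARE-driven firefly luciferase, 1000 cells/well in OPTI-MEM with 5% FBS, dosed after overnight attachment and incubated 24 hr at 37 deg C. Steady-Glo luminescence read after 30 min at RT.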
# Numbers without * were called inactive; ? = inconclusive; . = no result given. The call rests on the fitted dose curve; in most records, active means well fitted curve in the direction sought with a large enough effect; inconclusive means small, poorly fitted or top-dose-only effect, or another doubt; inactive means no such curve, though single readings can be large; an effect the other way counts as inactive or inconclusive.
no. | canonical_smiles | A549 viability | miR-21 reporter | Nrf2 inh
1 | CC1CC(C)(O)CC(C(O)CC2CC(=O)NC(=O)C2)C1=O (centres undefined) | ? | . | 0.58µM*
2 | COc1cccc(CSc2nc(-c3ccccc3OC)nc3c2Cc2c(CO)cnc(C)c2O3)c1 | -12% | 0% | ?
3 | COc1cc([C@@H]2c3cc4c(c(O)c3C[C@H]3COC(=O)[C@@H]32)OCO4)cc(OC)c1OC | -4% | . | ?
4 | CN(C)S(=O)(=O)c1ccc(C(=O)NNc2nc(-c3ccccc3)c3cc(Br)ccc3n2)cc1 | -20% | 12% | 13µM*
5 | CC(=O)N1CCc2cc(S(=O)(=O)N3CCN(c4ccc(C)cc4)C(C)C3)ccc21 (centres undefined) | -17% | 7% | 16µM*
6 | COc1ccc(N2CCN(C(=O)C3CCCN(S(=O)(=O)c4ccc5c(c4)CCCN5C(C)=O)C3)CC2)cc1 (centres undefined) | 2% | ? | .
7 | C=Cc1cc(OC)c2c(c1)c(=O)oc1c2cc(OC)c2c(O)ccc(C3OC(C)C(O)C(C)(O)C3O)c21 (centres undefined) | 5.2µM* | . | 2.1µM*
8 | CN1CC[C@@]2(C)c3cc(O)ccc3N(C)[C@@H]12 | 23µM* | . | -4%
9 | CN1C(=O)c2ccccc2Sc2ccc(NC(=O)c3ccc(C(F)(F)F)cc3)cc21 | -12% | ? | .
10 | COc1ccc2[nH]c3c(c2c1)CCN1C(=O)C(CC(=O)NCc2cccc(C(F)(F)F)c2)C[C@H](C(=O)N2CCCCC2)[C@@]31C (some centres undefined) | -23% | . | ?

no. | B2AR arrestin | Nrf2 activator
1 | . | 0%
2 | . | 3%
3 | . | .
4 | -1% | 5%
5 | . | -1%
6 | . | 0%
7 | . | -2%
8 | . | -2%
9 | . | 1%
10 | -1% | 0%

# Profiles as entered above.
# Record of COc1cc([C@@H]2c3cc4c(c(O)c3C[C@H]3COC(=O)[C@@H]32)OCO4)cc(OC)c1OC = A549 viability = -4%; miR-21 reporter = .; Nrf2 inh = ?; B2AR arrestin = .; Nrf2 activator = .
# Record of CC1CC(C)(O)CC(C(O)CC2CC(=O)NC(=O)C2)C1=O (centres undefined) = A549 viability = ?; miR-21 reporter = .; Nrf2 inh = 0.58µM*; B2AR arrestin = .; Nrf2 activator = 0%

# Next part
no. | canonical_smiles | A549 viability | miR-21 reporter | Nrf2 inh
11 | C/C(CC(c1ccccc1)c1c(O)c2ccccc2oc1=O)=N\Nc1ccc([N+](=O)[O-])cc1[N+](=O)[O-] (centres undefined) | ? | -5% | 23µM*
12 | CCOC(=O)c1cc(-c2ccccc2)n(CCCC(=O)Nc2ccc(C)c(C)c2)c1C | -11% | ? | .
13 | CC1(C)c2[nH]c3ccccc3c2C[C@@H]2C(=O)N(Cc3ccccc3F)C(=O)N21 | 8% | . | 0%
14 | CC1(C)c2[nH]c3ccccc3c2C[C@H]2C(=O)N(Cc3ccccc3F)C(=O)N21 | ? | . | 23µM*
15 | CC[n+]1c(SC)ccc2cc(OC)ccc21 | ? | -3% | 18µM*
16 | S=P(c1ccccc1)(c1ccccc1)c1c[nH]c2ccccc12 | 6% | . | -5%
17 | CCOc1cc(CNCCc2cccc(F)c2)ccc1OC | -4% | -9% | -3%
18 | CCOc1ccc(CCNC(=O)c2cc3c(-c4cccc(OC)c4)nn(C)c3s2)cc1OCC | -8% | 29% | 18µM*
19 | C=C1C(=O)[C@@]23C[C@H]4[C@@H]5[C@@]6(C)CCC[C@@]57[C@@H]2[C@@H](O)[C@@H]1C[C@H]3[C@H]7N4C6 | 13µM* | . | 23µM*
20 | O=C(NCCc1ccccc1)[C@@H]1CC=C[C@@H]2CCN(Cc3ccc(Cl)c(Cl)c3)C(=O)[C@@H]21 | -24% | . | ?

no. | B2AR arrestin | Nrf2 activator
11 | -1% | 15%
12 | . | 0%
13 | . | 6%
14 | . | 2%
15 | 0% | 0%
16 | . | .
17 | 0% | 0%
18 | . | -1%
19 | . | -3%
20 | . | 0%

# (next part)
no. | canonical_smiles | A549 viability | miR-21 reporter | Nrf2 inh
21 | COC(=O)C1=C(c2ccc(-c3ccccc3)c(F)c2)C[C@@H]2CC[C@H]1N2C(=O)N1CCCCC1 | -21% | . | ?
22 | COC(=O)C1=C(c2ccc(-c3ccccc3)c(F)c2)C[C@@H]2CC[C@H]1N2C(=O)N1CCc2cc(OC)c(OC)cc2C1 | -14% | . | 16µM*
23 | COC(=O)C1=C(c2ccc(-c3ccccc3)c(F)c2)C[C@@H]2CC[C@H]1N2C(=O)N1CCCC1 | -1% | . | 21µM*
24 | COC(=O)C1=C(c2ccc(-c3ccccc3)c(F)c2)C[C@@H]2CC[C@H]1N2C(=O)N1CCOCC1 | 0% | . | ?
25 | COC(=O)C1=C(c2ccc(-c3ccccc3)c(F)c2)C[C@@H]2CC[C@H]1N2C(=O)N1CCC(O)CC1 | -1% | . | ?
26 | COC(=O)C1=C(c2ccc(-c3ccccc3)c(F)c2)C[C@@H]2CC[C@H]1N2C(=O)N1CCC(C)CC1 | -7% | . | 16µM*
27 | COc1cccc(OC)c1-c1nn2c(-c3n[nH]c4c3CCC4)nnc2s1 | -8% | . | ?
28 | CCCCC(=O)Nc1c(C(=O)N2CCN(c3ccccc3F)CC2)oc2ccccc12 | -8% | 21% | ?
29 | Fc1ccc(-c2nc3c(-c4ccc(F)cc4)cnn3cc2CCN2CCOCC2)cc1 | 0% | 2% | ?
30 | O=C1NC(=O)N(Cc2ccco2)C(=O)/C1=C/C=C/c1ccco1 | 0% | 4% | -6%

no. | B2AR arrestin | Nrf2 activator
21 | 0% | 4%
22 | 2% | 3%
23 | 0% | 1%
24 | 0% | 1%
25 | 7% | 4%
26 | 4% | 1%
27 | . | .
28 | . | 0%
29 | 0% | 4%
30 | -1% | ?

# (continued)
no. | canonical_smiles | A549 viability | miR-21 reporter | Nrf2 inh
31 | O=C1NC(=O)N(Cc2ccccc2)C(=O)/C1=C\C=C\c1ccco1 | ? | 26% | 26µM*
32 | COc1cc([N+](=O)[O-])c2ncccc2c1[N+](=O)[O-] | . | . | .
33 | COc1cc([N+](=O)[O-])c2nc(C)ccc2c1[N+](=O)[O-] | -8% | . | -7%
34 | C[C@@H]1CN([C@H](C)CO)C(=O)c2cc(NC(=O)Nc3ccc(C(F)(F)F)cc3)ccc2O[C@H]1CN(C)S(=O)(=O)c1cccs1 | -18% | . | ?
35 | C[C@H](CO)N1C[C@H](C)[C@@H](CN(C)Cc2ccc(-c3ccccc3)cc2)Oc2c(NC(=O)c3ccncc3)cccc2C1=O | -19% | . | 21µM*
36 | O=C(CN1CCN(c2ncc(C(F)(F)F)cc2Cl)CC1)N1CCN(c2ncc(C(F)(F)F)cc2Cl)CC1 | ? | 2% | 11µM*
37 | CCc1nn2c(=O)cc(N3CCN(C)CC3)nc2s1 | -2% | . | 8%
38 | CC(O)C1C=CC=CC(=O)OC2CC3OC4C5OC5(C)C(O)CC4(COC(=O)C(O)C(C)CCO1)C2(C)C31CO1 (centres undefined) | . | . | 0.26µM*
39 | CC1=CC2OC3CC4OC(=O)C=CC=CC(=O)OCCC(C)C(O)C(=O)OCC2(CC1)C4(C)C31CO1 (centres undefined) | . | . | 0.0046µM*
40 | CCOc1ccc(Nc2c(S(=O)(=O)c3ccc(C)cc3)cnc3ccccc23)cc1 | -14% | 21% | 23µM*

no. | B2AR arrestin | Nrf2 activator
31 | -1% | ?
32 | . | -1%
33 | . | 18µM*
34 | 0% | -1%
35 | 0% | 0%
36 | 0% | 0%
37 | . | .
38 | . | -2%
39 | . | -2%
40 | . | 1%

# Continuation.
no. | canonical_smiles | A549 viability | miR-21 reporter | Nrf2 inh
41 | Cc1oc2ccc(O)c(CN3CCCCCC3)c2c1C(=O)Nc1cccc(Cl)c1C | -5% | ? | 21%
42 | Cc1ccc(-c2cc(-c3ccc(C)cc3)[n+](-c3ccc(C(=O)O)cc3)c(-c3ccc(C)cc3)c2)cc1 | 1% | . | 9%
43 | Cc1ccc(C[n+]2c(-c3ccc(C)cc3)cc(-c3ccc(C)cc3)cc2-c2ccc(C)cc2)cc1 | 18µM* | . | 5.2µM*
44 | CCOC(=O)CCCc1cc[c]([Sb](=[O])([OH])[OH])cc1 | -2% | . | 0%

no. | B2AR arrestin | Nrf2 activator
41 | . | 10%
42 | 0% | 1%
43 | 0% | -4%
44 | . | .
